# Binding of CDR-mutated scFvs to a peptide of the spike HR2 region

Target: peptide PDVDLGDISGINAS, taken from heptad repeat 2 (HR2) of SARS-CoV-2 spike.

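The starting antibody came from a phage panning campaign against this peptide. Library AAYL50 holds single substitutions and randomly drawn double and triple substitutions in the CDRs. AlphaSeq pools MATa yeast showing the antibodies with MATalpha yeast showing the peptide. Pairs that bind mate more often; barcode pairs of the diploids are counted by sequencing. Each replicate has its own calibration line, from reference interactions of the BCL2 family. Each pool was mated in three replicate cultures.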

Parent scFv Ab-14: VH joined to VL by three GGGGS repeats. Changes lie in the light chain CDRs alone.
VH: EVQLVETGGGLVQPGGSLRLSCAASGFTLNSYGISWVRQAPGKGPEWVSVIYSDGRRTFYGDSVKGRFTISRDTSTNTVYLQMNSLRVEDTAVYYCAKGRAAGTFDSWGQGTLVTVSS
VL: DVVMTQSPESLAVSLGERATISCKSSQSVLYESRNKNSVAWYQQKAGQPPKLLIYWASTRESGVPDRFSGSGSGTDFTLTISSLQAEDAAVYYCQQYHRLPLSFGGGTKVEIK

Each variant's VL is given in full. This list gathers variants with a substitution at A57 (VL, numbered from residue 1). Values are apparent Kd, the geometric mean of the replicates that gave a signal; lower means stronger binding. A pair that was not seen in any replicate is written "nd"; this usually means weak binding, but a binder can also be missed. Parent in this assay: reference entry 4.4 nM, copy in this library 48 nM. Background: pairings of library AAYL50 with three empty control strains gave a value in 18% of cases (median 15 µM, 5th percentile 970 nM). Values in that range, when seen in few replicates, are hard to tell from nonspecific mating.

The variant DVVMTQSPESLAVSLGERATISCKSSQSVLYESRNKNQVAWYQQKAGQPPKLLIYWISTRESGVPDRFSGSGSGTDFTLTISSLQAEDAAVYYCQQYHRLPLSFGGGTKVEIK showed nd (0 of 3 replicates).
The variant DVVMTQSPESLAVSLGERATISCKSSQSVLWELRNKNSVAWYQQKAGQPPKLLIYWQSTRESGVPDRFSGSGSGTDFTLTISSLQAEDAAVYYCQQYHRLPLSFGGGTKVEIK showed 3.2 µM (2 of 3 replicates).
The variant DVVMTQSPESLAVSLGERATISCKSSQSVLYESRNKNSVAWYQQKAGQPPKLLIYWESTCESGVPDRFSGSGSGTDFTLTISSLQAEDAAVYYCQQYHRLPLSFGGGTKVEIK showed nd (0 of 3 replicates).
The variant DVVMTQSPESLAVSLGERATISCKSSQSVLYESRNKNSVAWYQQKAGQPPKLLIYWQSTRESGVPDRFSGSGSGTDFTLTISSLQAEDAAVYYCHQYHRLALSFGGGTKVEIK showed 170 nM (3 of 3 replicates).
The variant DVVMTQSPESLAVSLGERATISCKSSQSVLYESRNKNSVAWYQQKAGQPPKLLIYPGSTRESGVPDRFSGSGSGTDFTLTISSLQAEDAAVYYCQQYHRLPLPFGGGTKVEIK showed nd (0 of 3 replicates).
The variant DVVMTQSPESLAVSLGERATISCQSSQSVLYESRNKNSVAWYQQKAGQPPKLLIYWSSTRESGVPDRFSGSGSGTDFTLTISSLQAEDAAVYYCQQYLRLPLSFGGGTKVEIK showed nd (0 of 3 replicates).
The variant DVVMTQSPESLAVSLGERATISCKSSQSTLYESRNKNSVAWYQQKAGQPPKLLIYWYSTHESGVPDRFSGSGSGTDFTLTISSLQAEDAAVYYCQQYHRLPLSFGGGTKVEIK showed nd (0 of 3 replicates).
The variant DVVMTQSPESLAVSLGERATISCKSSQSVLYESRNKNSVAWYQQKAGQPPKLLIYWESTRESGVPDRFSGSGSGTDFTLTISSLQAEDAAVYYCQQYHRQPESFGGGTKVEIK showed nd (0 of 3 replicates).
The variant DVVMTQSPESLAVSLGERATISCKSSQSVLYESRNKGQVAWYQQKAGQPPKLLIYWPSTRESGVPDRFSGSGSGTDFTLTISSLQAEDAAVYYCQQYHRLPLSFGGGTKVEIK showed nd (0 of 3 replicates).
The variant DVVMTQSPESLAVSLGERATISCKSSQSVLYESRNKNSVAWYQQKAGQPPKLLIYWESTRESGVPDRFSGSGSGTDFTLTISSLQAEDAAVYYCRLYHRLPLSFGGGTKVEIK showed nd (0 of 3 replicates).
The variant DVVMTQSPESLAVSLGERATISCKSSQSVLYESRNKNSVAWYQQKAGQPPKLLIYWFSTRDSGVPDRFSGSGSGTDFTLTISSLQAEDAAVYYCQQYHRLPLLFGGGTKVEIK showed nd (0 of 3 replicates).
The variant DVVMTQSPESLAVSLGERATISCKSSQSVLYESRNKNSVAWYQQKAGQPPKLLIYWSSTRESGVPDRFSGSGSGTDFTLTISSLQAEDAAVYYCQQYHRLPLSFGGGTKVEIK showed 23 nM (3 of 3 replicates).
The variant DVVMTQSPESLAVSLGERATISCKSSQSVLYESRNKNSVAWYQQKAGQPPKLLIYWHSTRESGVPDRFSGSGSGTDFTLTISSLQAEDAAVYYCQQDHRLVLSFGGGTKVEIK showed 3.4 µM (1 of 3 replicates).
The variant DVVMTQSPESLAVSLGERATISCKSSQSVLYESRNKNSVAWYQQKAGQPPKLLIYWRSTLESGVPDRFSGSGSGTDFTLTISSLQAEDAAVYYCQPYHRLPLSFGGGTKVEIK showed 120 µM (1 of 3 replicates).
The variant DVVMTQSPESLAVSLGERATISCKSSQSVLYEARNKNSVAWYQQKAGQPPKLLIYWSSTRESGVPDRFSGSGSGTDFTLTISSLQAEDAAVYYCQQYARLPLSFGGGTKVEIK showed 7.3 nM (3 of 3 replicates).
The variant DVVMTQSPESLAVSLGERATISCKSSQSVWYESRNKNSVAWYQQKAGQPPKLLIYWCSTRESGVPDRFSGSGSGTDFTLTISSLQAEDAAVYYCQQYHRLPFSFGGGTKVEIK showed 130 nM (3 of 3 replicates).
The variant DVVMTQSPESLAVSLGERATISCKSSQSVLYESRNKNSVAWYQQKAGQPPKLLIYWLSTRESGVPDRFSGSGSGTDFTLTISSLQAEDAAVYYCQQYHRLPLSFGGGTKVEIK showed 1.3 µM (3 of 3 replicates).
The variant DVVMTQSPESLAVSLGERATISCCSSQSVLYESRNKNSVAWYQQKAGQPPKLLIYWDSTRESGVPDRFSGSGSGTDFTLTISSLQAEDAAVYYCEQYHRLPLSFGGGTKVEIK showed nd (0 of 3 replicates).

The first 2 entries again:

VL,Kd (apparent),seen in
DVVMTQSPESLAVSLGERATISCKSSQSVLYESRNKNQVAWYQQKAGQPPKLLIYWISTRESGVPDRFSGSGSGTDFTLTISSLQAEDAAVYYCQQYHRLPLSFGGGTKVEIK,nd,0 of 3
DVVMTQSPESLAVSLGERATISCKSSQSVLWELRNKNSVAWYQQKAGQPPKLLIYWQSTRESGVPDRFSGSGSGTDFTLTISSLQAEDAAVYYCQQYHRLPLSFGGGTKVEIK,3.2 µM,2 of 3

Reference: Engelhart et al. 2022, doi:10.1038/s41597-022-01779-4. File: FLAb, binding data.